For the assay, the target named is Maternal embryonic leucine zipper kinase (Homo sapiens, UniProt Q14680). Description: Inhibition of recombinant C-terminal His6-tagged human MELK expressed in Escherichia coli BL21 (DE3) RIL using FAM-GS-derived peptide as substrate after 3 hrs by IMAP method.

Amino acid sequences for entries named in this document (tags omitted). A change or cut given only in a name is not applied to a line headed by its entry.
UniProt Q14680: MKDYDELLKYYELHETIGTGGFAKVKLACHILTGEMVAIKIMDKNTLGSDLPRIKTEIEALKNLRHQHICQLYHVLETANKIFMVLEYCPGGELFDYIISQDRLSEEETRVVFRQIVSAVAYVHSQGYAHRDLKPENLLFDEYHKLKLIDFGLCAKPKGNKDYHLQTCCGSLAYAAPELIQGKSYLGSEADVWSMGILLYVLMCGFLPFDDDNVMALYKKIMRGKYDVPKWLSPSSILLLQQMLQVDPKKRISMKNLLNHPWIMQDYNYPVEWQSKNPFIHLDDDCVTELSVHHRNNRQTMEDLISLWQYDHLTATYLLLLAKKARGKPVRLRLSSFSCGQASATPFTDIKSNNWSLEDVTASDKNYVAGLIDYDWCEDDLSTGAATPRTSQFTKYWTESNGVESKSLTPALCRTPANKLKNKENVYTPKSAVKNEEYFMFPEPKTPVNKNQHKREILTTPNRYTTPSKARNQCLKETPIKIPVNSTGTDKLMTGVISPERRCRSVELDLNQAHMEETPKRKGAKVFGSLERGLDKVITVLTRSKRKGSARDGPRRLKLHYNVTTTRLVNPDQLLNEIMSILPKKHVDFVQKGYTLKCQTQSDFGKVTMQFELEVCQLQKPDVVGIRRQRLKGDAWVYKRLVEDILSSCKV

Molecules are shown by their SMILES.

By IC50 is commonly meant the concentration at which inhibition is half-maximal. With `CC(=O)c1cnc2ccc(-c3cc(Cl)c(O)c(Cl)c3)nc2c1N[C@H]1CC[C@H](CN(C)C)CC1`, the half-inhibitory concentration (IC50) amounted to 0.41 nM.
